For this test, the target named is Kappa-type opioid receptor (Homo sapiens, UniProt P41145). Kind of test: Agonist activity at kappa opioid receptor (unknown origin) expressed in HEK293 cells assessed as inhibition of forskolin-induced cAMP accumulation at 1 uM after 30 mins. A general note: Changes in cAMP serve as a functional read-out for many G protein-coupled receptors.

The chains behind the UniProt entries cited, without tags or fusion partners. Where a name states a change or a piece, a line headed by the entry shows the natural chain unless it says otherwise.
UniProt P41145: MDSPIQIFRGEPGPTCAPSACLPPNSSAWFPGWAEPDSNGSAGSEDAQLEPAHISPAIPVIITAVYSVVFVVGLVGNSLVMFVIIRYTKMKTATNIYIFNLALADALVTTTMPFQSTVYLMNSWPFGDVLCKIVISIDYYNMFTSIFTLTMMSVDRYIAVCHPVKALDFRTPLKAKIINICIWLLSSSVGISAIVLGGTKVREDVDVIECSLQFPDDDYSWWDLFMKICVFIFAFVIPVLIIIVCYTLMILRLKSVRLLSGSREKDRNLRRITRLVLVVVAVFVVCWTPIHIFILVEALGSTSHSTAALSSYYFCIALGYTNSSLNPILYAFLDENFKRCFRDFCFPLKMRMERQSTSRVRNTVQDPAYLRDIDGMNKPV

Calls of active or inactive are those of the source. The calls are words filed in the database; no cut-off is given here.

The text below walks through data of ChEMBL document CHEMBL3232856, “Endomorphin analogues with mixed μ-opioid (MOP) receptor agonism/δ-opioid (DOP) receptor antagonism and lacking β-arrestin2 recruitment activity” (Bioorg Med Chem, 2014).

For `CN(C(=O)Cc1ccccc1)[C@H]1CC[C@@]2(CCCO2)C[C@@H]1N1CCCC1`, the inhibition entry was “Active”.
